We go through 1 compound from patent US7348336B2 (Sanofi-Aventis Deutschland GmbH, priority 2000, dated 2008).

Amino acid sequences for entries named in this document (tags omitted). A change or cut given only in a name is not applied to a line headed by its entry.
UniProt O14920: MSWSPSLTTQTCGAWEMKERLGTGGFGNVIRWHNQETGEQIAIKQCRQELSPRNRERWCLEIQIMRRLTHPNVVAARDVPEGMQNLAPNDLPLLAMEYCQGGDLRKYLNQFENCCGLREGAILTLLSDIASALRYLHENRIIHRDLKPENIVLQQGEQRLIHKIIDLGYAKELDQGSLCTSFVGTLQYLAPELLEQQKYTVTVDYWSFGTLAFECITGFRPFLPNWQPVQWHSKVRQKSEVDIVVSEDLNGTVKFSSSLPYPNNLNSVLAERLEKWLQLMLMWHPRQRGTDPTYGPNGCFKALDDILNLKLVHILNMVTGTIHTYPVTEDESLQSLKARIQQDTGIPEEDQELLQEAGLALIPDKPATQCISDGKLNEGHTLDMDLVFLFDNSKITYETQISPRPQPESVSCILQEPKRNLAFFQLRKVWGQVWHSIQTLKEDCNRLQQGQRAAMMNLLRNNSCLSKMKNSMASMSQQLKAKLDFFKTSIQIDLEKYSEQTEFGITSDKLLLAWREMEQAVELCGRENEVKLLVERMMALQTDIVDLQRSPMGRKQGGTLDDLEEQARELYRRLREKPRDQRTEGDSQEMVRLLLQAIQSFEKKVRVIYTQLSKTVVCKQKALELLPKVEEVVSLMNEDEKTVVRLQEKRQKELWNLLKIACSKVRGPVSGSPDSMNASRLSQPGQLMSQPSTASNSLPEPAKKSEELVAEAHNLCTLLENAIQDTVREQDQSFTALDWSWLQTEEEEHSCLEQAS
UniProt O15111: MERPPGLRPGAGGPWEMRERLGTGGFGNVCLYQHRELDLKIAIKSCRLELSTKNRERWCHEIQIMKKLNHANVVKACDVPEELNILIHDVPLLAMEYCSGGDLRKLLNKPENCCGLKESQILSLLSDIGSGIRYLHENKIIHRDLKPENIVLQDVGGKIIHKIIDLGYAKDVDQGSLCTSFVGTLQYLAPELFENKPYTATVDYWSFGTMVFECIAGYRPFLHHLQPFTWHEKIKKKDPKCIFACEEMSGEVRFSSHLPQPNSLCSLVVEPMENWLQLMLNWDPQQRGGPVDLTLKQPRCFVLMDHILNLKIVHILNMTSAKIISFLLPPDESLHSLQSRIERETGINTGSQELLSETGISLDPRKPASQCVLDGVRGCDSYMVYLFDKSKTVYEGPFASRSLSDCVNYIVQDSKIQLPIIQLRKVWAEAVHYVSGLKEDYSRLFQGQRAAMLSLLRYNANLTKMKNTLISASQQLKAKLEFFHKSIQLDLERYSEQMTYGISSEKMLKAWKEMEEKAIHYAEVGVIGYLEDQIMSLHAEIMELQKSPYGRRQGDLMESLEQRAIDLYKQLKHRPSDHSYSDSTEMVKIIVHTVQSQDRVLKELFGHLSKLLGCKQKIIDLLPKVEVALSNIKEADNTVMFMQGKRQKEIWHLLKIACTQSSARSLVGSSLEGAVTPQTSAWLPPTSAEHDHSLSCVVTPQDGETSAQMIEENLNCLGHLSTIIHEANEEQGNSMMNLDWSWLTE

For this assay, the target named is T1, IκBα-kinase complex (Homo sapiens, UniProt O14920+O15111).
T1 construct: endogenous in cells; host or cells: HeLa S3 cell extract, S100 fraction; ammonium sulfate precipitation and Superose-6 size exclusion
Put plainly: IkB-Kinase ELISA.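 Further: substrate phosphopeptide captured on Protein-A plates, detected with Streptavidin-HRP and TMB absorbance at 450 nm, activity read from a synthetic phosphopeptide standard curve.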 In kind it is biochemical. Particulars: activated IκBα kinase complex from HeLa S3 cell extracts.

SMILES strings stand for the structures.

Regarding `CC(=O)Nc1cc(Cl)cc2c1[nH]c1cnccc12` [Example 16, 9-amino-7-chloro-β-carboline trifuoroacetate], inhibition was half-maximal at 300 nM (IC50).
